These results are taken from patent US12304894B2, “Derivatives of adamantyl oxadiazoles and pharmaceutically acceptable solvates, hydrates and salts thereof, pharmaceutical composition comprising same, synthesis method, suitable for use as effective and selective inhibitors of the reductase activity of the enzyme 11-beta dehydrogenase type 1 …” (PONTIFICIA UNIVERSIDAD CATOLICA DE CHILE, priority 2019, dated 2025).

By UniProt entry, the sequences of proteins in these tests, tags left out. Where a name states a change or a piece, a line headed by the entry shows the natural chain unless it says otherwise.
UniProt P28845: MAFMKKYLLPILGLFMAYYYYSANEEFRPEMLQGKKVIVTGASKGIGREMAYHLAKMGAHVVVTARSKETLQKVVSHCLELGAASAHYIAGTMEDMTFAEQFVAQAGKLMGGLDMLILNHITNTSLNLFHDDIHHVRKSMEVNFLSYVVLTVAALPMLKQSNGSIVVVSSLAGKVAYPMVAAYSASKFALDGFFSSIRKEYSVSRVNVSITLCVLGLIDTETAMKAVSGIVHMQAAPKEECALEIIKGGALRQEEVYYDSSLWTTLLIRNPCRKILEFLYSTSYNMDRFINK

For one experiment, the system named is 11β-HSD2. In words: 11β-HSD2 oxidase activity in human hepatic microsomes (HTRF Cortisol Kit). The format is biochemical. The settings on record: remaining activity at 100 nM compound. Here is the method:
Determination of 11β-HSD2 Oxidase Activity
The concentration of cortisone produced in the reaction, with and without the compounds, was determined using the Cortisol Kit (Cisbio) product in order to evaluate the 11β-HSD2 oxidase activity.
As in the previous assays, the compounds are reconstituted in DMSO to 10 mM stock, in order to subsequently make serial dilutions to determine the efficacy curve.
To determine the IC50 of the compounds, a model of donor human hepatic microsomes (BioReclamationIVT Inc.) was used, which was prepared in Tris Buffer 20 mM EDTA 5 mM pH 6.0 (Tris buffer).
To perform the assay, the HTRF plate was prepared containing Tris buffer, 100 nM cortisol and 200 μM NAD^+. […]
After the incubation time, the reagents of the Cortisol kit, Cortisol d2 and Cortisol cryptate, in a sample ratio, Cortisol d2 and cortisol cryptate 2:1:1 are added. […] The plate was incubated for 1 hour at room temperature to later read at 665 and 620 nm.
Once the enzyme concentration to be used has been determined, the Cortisol Kit protocol is continued to determine the efficacy curve for the compounds. […]
After incubating the plate for 2 hours, the reagents of the cortisol kit, cortisol d2 and cortisol cryptate, are added to the corresponding wells as indicated above. They are then incubated at room temperature for 1 hour to finally read the 665 and 620 nm fluorescence.

Experiment [1] concerns the target recombinant 11β-HSD1 enzyme (Homo sapiens (Human), UniProt P28845). In words: 11β-HSD1 oxidase activity (HTRF Cortisol Kit). The format is biochemical. The following applies: remaining activity at 100 uM compound. As for the experimental part: Determination of 11β-HSD1 Oxidase Activity
The determination of the 11β-HSD1 oxidase activity is carried out by measuring the concentration of cortisone produced in the reaction with and without the compounds. The Cortisol Kit (Cisbio) product was used for that purpose.
For the analysis, the compounds are reconstituted in DMSO in a stock of 10 mM concentration, from which serial dilutions were prepared for the efficiency curve.
The recombinant 11β-HSD1 enzyme dilutions were prepared in 20 mM Tris Buffer 5 mM EDTA pH 6.0 (Tris buffer).
Initially, the enzyme concentration to be used was determined. For this purpose, a plate for HRTF was prepared with Tris buffer with 100 nM cortisol and 200 μM NADP+, including in the wells of the plate for HTRF together with the enzyme in a 4:1 ratio, respectively, and incubated for 2 hours at 37° C. After this time, the reagents of the Cortisol kit, Cortisol d2 and Cortisol cryptate in sample ratio, Cortisol d2 and cortisol cryptate 2:1:1 were added, incubating this new reaction for 1 hour at room temperature. Subsequently, the fluorescence was determined at 665 and 620 nm.
Once the enzyme concentration to be used has been determined, the Cortisol Kit protocol is continued to determine the efficacy curve of the compounds. […] They were then incubated at room temperature for 1 hour to finally read the fluorescence at 665 and 620 nm.
In general terms: Time-resolved FRET reads energy transfer from a long-lived donor to a nearby acceptor.

As to “1-(3-pyridyl)-2-(3-adamantyl-1,2,4-oxadiazol-5-yl)ethane [BD-44]”, the “11b-HSD2 oxidase (activ rem %) Microcosms 100 nM” value in the experiment on 11β-HSD2 is recorded as 114.1%. In the case of `c1ccc(CCc2nc(C34CC5CC(CC(C5)C3)C4)no2)nc1` [BD-45, 1-(2-pyridyl)-2-(3-adamantyl-1,2,4-oxadiazol-5-yl)ethane], in experiment [1], the “11b-HSD1 oxidase (activ rem %) 100 uM” value is reported as 114.0%.
